## Ab-14 heavy chain CDR variants: yeast mating affinities

From the AlphaSeq antibody data of Engelhart et al. 2022 (doi:10.1038/s41597-022-01779-4), copy in the FLAb collection.

Binding partner: SARS-CoV-2 spike HR2 peptide, sequence PDVDLGDISGINAS.

Parent scFv Ab-14: VH joined to VL by a (GGGGS)3 linker. Changes lie in the heavy chain CDRs alone.
VH: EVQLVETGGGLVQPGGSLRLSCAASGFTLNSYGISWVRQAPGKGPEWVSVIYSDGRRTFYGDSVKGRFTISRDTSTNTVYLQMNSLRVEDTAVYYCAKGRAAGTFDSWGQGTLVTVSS
VL: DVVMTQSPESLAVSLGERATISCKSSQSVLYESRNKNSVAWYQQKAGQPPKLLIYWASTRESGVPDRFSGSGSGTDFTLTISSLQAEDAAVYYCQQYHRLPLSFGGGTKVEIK

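Phage display of a naive human antibody library on the peptide gave the parent. Variants in AAYL49 differ from the parent at up to three CDR positions; double and triple changes were sampled at random. The assay is AlphaSeq: two haploid yeast populations carry antibody and antigen on their surface. The frequency of each diploid, read from paired DNA barcodes, reflects how well the two displayed proteins bind. The ratio of observed to expected reads was calibrated, replicate by replicate, on BCL2-family standards whose Kd was known from biolayer interferometry. There are three technical replicates.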

Changes read parent residue, position, new residue, counted from the first residue of the VH shown. All variants listed here change F27 of the VH, counted from its first residue. Kd is apparent (estimated from mating counts) and averaged on the log scale over replicates with a signal. Smaller is tighter. "no signal" means that the variant was in the library but no mating with the target was seen in any replicate; the authors take this as a sign of poor binding, and no number exists.

For F27L+S31F+R56P, the assay gave 12 µM (3 of 3 replicates). Variant F27G+D106V+S107L showed no signal (0 of 3 replicates). Variant F27L+I51C+R57S showed no signal (0 of 3 replicates). Variant F27P+Y32R+S107Q showed 220 µM (1 of 3 replicates). With F27A+D54L+F59R the result was no signal (0 of 3 replicates). For F27Y+V50K+S53D, the assay gave no signal (0 of 3 replicates). Variant F27C+Y60A+F105W showed no signal (0 of 3 replicates). Variant F27W+Y32E+D54K gave no signal (0 of 3 replicates).

With F27N+S53C+S63F the result was no signal (0 of 3 replicates). For F27E+D62L+A101F, the assay gave no signal (0 of 3 replicates). With F27Q+V64D+G99K the result was 1.7 µM (1 of 3 replicates). For F27C+D54K+G61Y, the assay gave no signal (0 of 3 replicates). Variant F27G+D62E+T104A showed no signal (0 of 3 replicates). With F27K+T28L+D54L the result was no signal (0 of 3 replicates). Variant F27N+S63D+K65T showed 71 nM (3 of 3 replicates). Variant F27N+I34D+S35G showed no signal (0 of 3 replicates).

Variant F27C+V50I showed 9.4 µM (1 of 3 replicates). With F27G+F59W+D106Q the result was 13 µM (1 of 3 replicates). For F27P+Y60V+G61Q, the assay gave 660 nM (3 of 3 replicates). With F27C+Y60E+D62H the result was 55 µM (3 of 3 replicates). With F27R+Y52K+D106I the result was 3.2 µM (1 of 3 replicates). Variant G26D+F27T+F105R showed 130 µM (2 of 3 replicates). Variant F27S+R57M+K65R gave 9.7 µM (2 of 3 replicates). Variant F27R+V50L+G99D gave 11 µM (1 of 3 replicates).

With G26D+F27W the result was 16 µM (1 of 3 replicates). Variant F27D+G33I+I51F gave no signal (0 of 3 replicates). Variant F27D+V50E+F59G showed 6.1 µM (2 of 3 replicates). Variant F27S+N30S+G99P gave no signal (0 of 3 replicates). Variant F27W+R57C+D106R showed no signal (0 of 3 replicates). With F27V+D106P+S107L the result was no signal (0 of 3 replicates). Variant F27K+T58I+S107N gave no signal (0 of 3 replicates). Variant F27Y+G33K+R57M gave no signal (0 of 3 replicates).

With F27I+V50G the result was 3.1 µM (2 of 3 replicates). Variant F27I+G33M+G55L gave no signal (0 of 3 replicates). With F27S+T58Q the result was 2.6 µM (3 of 3 replicates). Variant F27Y+F105R showed 4.9 µM (1 of 3 replicates). Variant F27H+Y60E gave 4.9 µM (2 of 3 replicates). With F27K+I34A+G103I the result was no signal (0 of 3 replicates). Variant F27H+G55I+R56D showed 3.4 µM (1 of 3 replicates). Variant F27Y+T28C+A101V gave 270 nM (3 of 3 replicates).

Variant F27C+S31D+A102C gave 19 µM (1 of 3 replicates). Variant F27K+S31N+I51S showed 1.8 µM (1 of 3 replicates). Variant F27A+T104D+D106G gave 10 µM (2 of 3 replicates). For F27V+G33Y+R56W, the assay gave no signal (0 of 3 replicates). Variant F27M+R56P+F105M gave 6.0 µM (2 of 3 replicates). With F27W+Y52E+V64P the result was 36 µM (2 of 3 replicates).

The closing 5 entries, repeated:

F27K+S31N+I51S: 1.8 µM (1 of 3 replicates).
F27A+T104D+D106G: 10 µM (2 of 3 replicates).
F27V+G33Y+R56W: no signal (0 of 3 replicates).
F27M+R56P+F105M: 6.0 µM (2 of 3 replicates).
F27W+Y52E+V64P: 36 µM (2 of 3 replicates).

Empty control strains, which show no peptide, gave a signal in 15% of pairings with library AAYL49; the median was 11 µM and 95% of these signals were weaker than 680 nM. No background was subtracted. In this assay the parent's reference entry averaged 4.4 nM; its copy inside this library read 13 µM (one replicate of three).